These are literature values, as cited in PMC2996101 (Journal of natural products, 2009).

In this data set the test system is 12-hLO. To be noted: read-out: previous IC50 12-hLO; previous work without Triton X100 ref 9; cited from earlier work.

What is called IC50 is the concentration that inhibits the measured activity by half. `CC(Cc1ccc(O)c(O)c1)C(C)Cc1ccc(O)c(O)c1` (stereo not shown) [Compound 12, NDGA, reference compound]: the IC50 is 42 µM.
